From patent US20260294922A1, “Inhibitors of JUN N-Terminal Kinases (JNK1, JNK2, and/or JNK3) and Mitogen-Activated Protein Kinases (MAPK8, MAPK9, and/or MAPK10) and Methods of Using Same” (Baylor College of Medicine, priority 2023, published 2026) come the findings set out here.

The chains behind the UniProt entries cited, without tags or fusion partners. Where a name states a change or a piece, a line headed by the entry shows the natural chain unless it says otherwise.
UniProt P57078: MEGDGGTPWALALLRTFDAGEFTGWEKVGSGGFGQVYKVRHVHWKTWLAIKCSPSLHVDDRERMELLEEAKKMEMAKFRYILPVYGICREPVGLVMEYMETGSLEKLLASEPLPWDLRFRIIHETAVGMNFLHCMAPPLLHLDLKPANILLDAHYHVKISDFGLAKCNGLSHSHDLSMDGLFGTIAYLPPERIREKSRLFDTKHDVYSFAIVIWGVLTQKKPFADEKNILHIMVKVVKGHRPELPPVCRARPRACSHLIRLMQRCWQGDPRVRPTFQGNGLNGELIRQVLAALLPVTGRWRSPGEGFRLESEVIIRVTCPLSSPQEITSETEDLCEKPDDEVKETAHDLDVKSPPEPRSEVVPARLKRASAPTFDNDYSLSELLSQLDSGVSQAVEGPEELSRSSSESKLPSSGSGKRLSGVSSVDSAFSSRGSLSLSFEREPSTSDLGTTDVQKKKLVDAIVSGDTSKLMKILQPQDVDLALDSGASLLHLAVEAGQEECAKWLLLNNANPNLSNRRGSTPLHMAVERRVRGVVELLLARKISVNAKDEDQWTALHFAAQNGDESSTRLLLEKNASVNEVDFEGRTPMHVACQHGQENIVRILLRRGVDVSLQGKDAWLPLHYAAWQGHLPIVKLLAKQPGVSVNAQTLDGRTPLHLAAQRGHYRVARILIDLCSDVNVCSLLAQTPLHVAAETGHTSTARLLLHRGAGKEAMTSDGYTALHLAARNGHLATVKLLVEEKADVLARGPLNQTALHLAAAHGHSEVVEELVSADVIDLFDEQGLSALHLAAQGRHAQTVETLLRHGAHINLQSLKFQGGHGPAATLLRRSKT
UniProt P49674: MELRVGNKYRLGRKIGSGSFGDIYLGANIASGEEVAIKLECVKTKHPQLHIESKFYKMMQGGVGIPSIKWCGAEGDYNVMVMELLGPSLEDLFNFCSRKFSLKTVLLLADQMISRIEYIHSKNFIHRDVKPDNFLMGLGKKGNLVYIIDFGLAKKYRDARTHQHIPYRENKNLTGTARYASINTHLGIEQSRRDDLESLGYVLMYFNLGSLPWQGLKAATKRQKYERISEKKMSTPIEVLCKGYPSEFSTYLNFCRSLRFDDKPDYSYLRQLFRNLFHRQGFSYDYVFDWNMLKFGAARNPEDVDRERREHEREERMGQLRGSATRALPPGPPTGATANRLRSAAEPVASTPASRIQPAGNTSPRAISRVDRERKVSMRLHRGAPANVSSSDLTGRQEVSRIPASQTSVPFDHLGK
UniProt P48730: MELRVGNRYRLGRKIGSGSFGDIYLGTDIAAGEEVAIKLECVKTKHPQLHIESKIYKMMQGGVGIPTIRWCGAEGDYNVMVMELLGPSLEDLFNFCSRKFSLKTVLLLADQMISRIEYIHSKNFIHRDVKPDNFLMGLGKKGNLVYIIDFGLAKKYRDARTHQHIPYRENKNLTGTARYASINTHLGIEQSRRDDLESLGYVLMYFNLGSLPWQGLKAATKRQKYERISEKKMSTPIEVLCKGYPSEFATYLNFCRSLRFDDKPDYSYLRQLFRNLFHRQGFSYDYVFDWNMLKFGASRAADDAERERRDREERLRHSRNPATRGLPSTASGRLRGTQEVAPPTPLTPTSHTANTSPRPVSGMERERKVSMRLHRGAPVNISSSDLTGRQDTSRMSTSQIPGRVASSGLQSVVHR
UniProt P49761: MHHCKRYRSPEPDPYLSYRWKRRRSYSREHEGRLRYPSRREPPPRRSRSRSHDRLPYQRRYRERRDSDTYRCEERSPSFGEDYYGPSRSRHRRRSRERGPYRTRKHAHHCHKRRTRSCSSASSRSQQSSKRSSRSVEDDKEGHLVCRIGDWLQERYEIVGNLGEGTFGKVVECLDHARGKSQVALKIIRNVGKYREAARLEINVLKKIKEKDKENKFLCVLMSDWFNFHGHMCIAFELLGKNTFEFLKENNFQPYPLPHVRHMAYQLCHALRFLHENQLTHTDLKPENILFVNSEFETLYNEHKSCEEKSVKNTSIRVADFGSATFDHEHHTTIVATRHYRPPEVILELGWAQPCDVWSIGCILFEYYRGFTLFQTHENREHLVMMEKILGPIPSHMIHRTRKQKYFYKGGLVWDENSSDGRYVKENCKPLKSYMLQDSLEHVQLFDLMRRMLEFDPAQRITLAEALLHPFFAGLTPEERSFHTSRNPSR
UniProt P45985: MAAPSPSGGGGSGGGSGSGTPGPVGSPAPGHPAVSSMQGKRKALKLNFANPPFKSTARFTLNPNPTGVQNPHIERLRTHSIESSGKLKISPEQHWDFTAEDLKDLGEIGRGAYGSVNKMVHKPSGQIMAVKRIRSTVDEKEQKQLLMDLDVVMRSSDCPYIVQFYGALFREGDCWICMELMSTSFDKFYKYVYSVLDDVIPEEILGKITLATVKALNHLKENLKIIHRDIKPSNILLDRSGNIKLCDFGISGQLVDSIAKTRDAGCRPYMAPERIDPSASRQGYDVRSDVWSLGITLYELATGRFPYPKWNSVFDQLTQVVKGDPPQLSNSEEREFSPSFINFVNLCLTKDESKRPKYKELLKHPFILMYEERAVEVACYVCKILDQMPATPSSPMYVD
UniProt P28482, whole entry, looked up: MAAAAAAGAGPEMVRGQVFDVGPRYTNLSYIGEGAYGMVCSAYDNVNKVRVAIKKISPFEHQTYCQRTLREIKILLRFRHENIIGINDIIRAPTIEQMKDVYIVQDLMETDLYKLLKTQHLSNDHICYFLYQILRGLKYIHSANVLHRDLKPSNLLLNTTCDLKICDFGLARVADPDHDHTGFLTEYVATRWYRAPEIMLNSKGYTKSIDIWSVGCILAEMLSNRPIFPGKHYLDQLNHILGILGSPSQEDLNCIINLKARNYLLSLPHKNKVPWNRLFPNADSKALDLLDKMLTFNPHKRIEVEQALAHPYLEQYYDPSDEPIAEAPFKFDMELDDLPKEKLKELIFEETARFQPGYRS
UniProt P49760, whole entry, looked up: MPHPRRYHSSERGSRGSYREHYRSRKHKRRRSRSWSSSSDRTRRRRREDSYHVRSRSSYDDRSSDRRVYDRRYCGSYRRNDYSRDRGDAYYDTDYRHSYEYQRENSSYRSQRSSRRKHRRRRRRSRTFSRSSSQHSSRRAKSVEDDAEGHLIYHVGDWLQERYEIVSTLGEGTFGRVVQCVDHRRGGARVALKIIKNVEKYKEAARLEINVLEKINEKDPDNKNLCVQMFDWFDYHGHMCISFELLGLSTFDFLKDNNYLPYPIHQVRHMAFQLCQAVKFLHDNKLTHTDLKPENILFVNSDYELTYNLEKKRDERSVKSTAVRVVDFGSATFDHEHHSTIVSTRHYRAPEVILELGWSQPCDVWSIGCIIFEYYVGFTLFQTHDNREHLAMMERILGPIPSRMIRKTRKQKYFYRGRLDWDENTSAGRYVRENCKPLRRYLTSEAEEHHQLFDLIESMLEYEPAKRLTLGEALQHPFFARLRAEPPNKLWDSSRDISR
UniProt P53779: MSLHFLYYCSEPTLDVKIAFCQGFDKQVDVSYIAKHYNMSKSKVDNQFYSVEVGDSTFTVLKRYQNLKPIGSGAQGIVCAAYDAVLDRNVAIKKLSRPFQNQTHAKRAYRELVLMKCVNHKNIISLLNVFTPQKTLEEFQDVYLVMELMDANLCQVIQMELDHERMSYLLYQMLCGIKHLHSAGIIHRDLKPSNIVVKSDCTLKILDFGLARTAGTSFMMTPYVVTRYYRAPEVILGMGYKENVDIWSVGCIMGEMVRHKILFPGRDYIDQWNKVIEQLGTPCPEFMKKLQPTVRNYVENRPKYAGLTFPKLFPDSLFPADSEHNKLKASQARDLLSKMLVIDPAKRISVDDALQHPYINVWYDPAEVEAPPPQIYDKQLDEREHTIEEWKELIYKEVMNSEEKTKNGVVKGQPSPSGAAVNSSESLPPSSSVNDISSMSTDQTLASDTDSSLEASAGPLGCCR
UniProt P45983: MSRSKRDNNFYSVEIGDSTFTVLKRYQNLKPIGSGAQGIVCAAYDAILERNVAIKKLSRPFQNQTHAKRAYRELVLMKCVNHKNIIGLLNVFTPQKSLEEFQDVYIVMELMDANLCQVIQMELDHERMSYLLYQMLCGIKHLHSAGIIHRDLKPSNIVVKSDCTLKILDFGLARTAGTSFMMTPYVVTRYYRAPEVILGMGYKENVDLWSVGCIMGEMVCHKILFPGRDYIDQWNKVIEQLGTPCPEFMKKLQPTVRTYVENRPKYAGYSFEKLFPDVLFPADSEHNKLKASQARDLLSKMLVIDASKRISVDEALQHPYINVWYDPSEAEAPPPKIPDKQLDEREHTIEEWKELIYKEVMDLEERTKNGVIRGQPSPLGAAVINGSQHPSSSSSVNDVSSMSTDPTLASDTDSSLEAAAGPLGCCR

One assay deals with RIPK4 (Homo sapiens, UniProt P57078). The assay can be described thus: ThermoFisher SelectScreen, RIPK4. As to conditions: out-of-pathway.
The target in a further assay is CSNK1E (Homo sapiens, UniProt P49674). Briefly: ThermoFisher SelectScreen, CSNK1E. It is filed as binding. To be noted: out-of-pathway.
The next assay has as its target JNK2 (Homo sapiens, UniProt P45984). The assay can be described thus: ThermoFisher SelectScreen, JNK2. It is filed as binding. To be noted: in-pathway.
The next assay concerns the target CSNK1D (Homo sapiens, UniProt P48730). The assay can be described thus: ThermoFisher SelectScreen, CSNK1D. Format: binding. As to conditions: out-of-pathway.
In the next assay the target is CLK3 (Homo sapiens, UniProt P49761). The assay can be described thus: ThermoFisher SelectScreen, CLK3. Format: binding. As to conditions: out-of-pathway.
The target in a further assay is MEK4 (Homo sapiens, UniProt P45985). Briefly: ThermoFisher SelectScreen, MEK4. It is filed as binding.
The next assay deals with ERK2 (Homo sapiens, UniProt P28482). Briefly: ThermoFisher SelectScreen, ERK2. It is filed as binding. To be noted: Opportunistic.
For the next assay, the system named is 480 kinases. Briefly: Eurofins KINOMEscan selectivity profile. Format: binding.
The next assay concerns the target CLK2 (Homo sapiens, UniProt P49760). Briefly: ThermoFisher SelectScreen, CLK2. To be noted: Opportunistic. It is filed as binding.
Another assay concerns the target JNK3 (Homo sapiens, UniProt P53779). The assay can be described thus: ThermoFisher SelectScreen, JNK3. It is filed as binding. To be noted: in-pathway.
Another assay deals with JNK1 (Homo sapiens, UniProt P45983). Briefly: ThermoFisher SelectScreen, JNK1. It is filed as binding. To be noted: in-pathway.

In the case of `CN(C)C(=O)c1cc(NC(=O)c2cc3c(-c4cnc5[nH]ccc5c4)cccc3s2)ccc1O` [CDD-2728, N-(3-(dimethylcarbamoyl)-4-hydroxyphenyl)-4-(1H-pyrrolo[2,3-b]pyridin-5-yl)benzo[b]thiophene-2-carboxamide], the Selectivity ratio (SR) RIPK4 relative to JNK1 on RIPK4 was above 500. For the same compound, the Selectivity ratio (SR) CSNK1E relative to JNK1 on CSNK1E was 596. The Selectivity ratio (SR) JNK2 relative to JNK1 at JNK2 is 3. Moreover, at CSNK1D, the Selectivity ratio (SR) CSNK1D relative to JNK1 amounted to 511. The Selectivity ratio (SR) CLK3 relative to JNK1 at CLK3 came out at 568. For the same compound, the Selectivity ratio (SR) MEK4 relative to JNK1 at MEK4 (in-pathway) was 7.6. The “selectivity for in-pathway target” value on MEK4 (in-pathway target) was determined as 7 fold. In addition, the Selectivity ratio (SR) ERK2 relative to JNK1 on ERK2 was 505. Also, the “KINOMEscan selectivity / inhibition” value with 480 kinases (Bentamapimod and Tanzisertib at 1 μM) is given as “No activity of CDD-2728 was detected for Atypical, Mutant, or Lipid kinases”. In addition, the “selectivity for five of the out-of-pathway kinase targets” value in the assay with 480 kinases (confirmed by ThermoFisher SelectScreen) was “over 500 fold”. Moreover, in the assay with 480 kinases (in words), the “selectivity among the MEK family relative to pazopanib” value is listed as “far more selective than pazopanib”. For the same compound, on CLK2, the Selectivity ratio (SR) CLK2 relative to JNK1 was 133. Also, at JNK3, the Selectivity ratio (SR) JNK3 relative to JNK1 is 2. For the same compound, at JNK1, the Selectivity ratio (SR) JNK1 relative to JNK1 stood at 1.
